Only a part is listed here, and it is no random draw. Activity calls are given as the source filed them. Calls follow the shape of the dose curve; as a rule, active = well fitted curve in the direction sought with a large enough effect; inconclusive = small, poorly fitted or top-dose-only effect; inactive = flat fitted curve, though single readings scatter.
% is scaled to controls: 0 for no effect and ±100 for the full control effect.

Protein sequences, listed by entry. Tags and fused reporters are not part of them. Lines headed by an entry give the natural chain unless they say otherwise; changes in a name come on top.
UniProt Q9HC16: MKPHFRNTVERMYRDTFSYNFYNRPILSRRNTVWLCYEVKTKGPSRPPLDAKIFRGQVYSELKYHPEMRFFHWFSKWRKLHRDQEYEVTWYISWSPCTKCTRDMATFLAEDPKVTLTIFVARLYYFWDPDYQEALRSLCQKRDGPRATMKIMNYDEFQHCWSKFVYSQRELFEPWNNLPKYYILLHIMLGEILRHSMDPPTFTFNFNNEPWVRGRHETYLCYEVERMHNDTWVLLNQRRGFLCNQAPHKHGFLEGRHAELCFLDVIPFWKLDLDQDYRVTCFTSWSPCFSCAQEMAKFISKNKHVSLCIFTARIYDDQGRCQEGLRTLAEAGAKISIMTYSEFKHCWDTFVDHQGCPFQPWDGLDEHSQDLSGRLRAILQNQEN

The target in this test is DNA dC->dU-editing enzyme APOBEC-3G (Homo sapiens) (UniProt Q9HC16). In words: qHTS for Inhibitors of Vif-A3G Interactions: qHTS.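 Also: hits raise eYFP signal because A3G escapes Vif-driven loss; nearly all actives have a fitted effect of over 60% in size.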 The settings on record: HeLa A3G-eYFP + Vif (tagged APOBEC3G with the HIV-1 protein that degrades it), YFP fluorescence, overnight; at 46.1 µM (top of the series). The text has this:
The recent discovery and characterization of host restriction factors, which provide a potent defense to invading retroviruses, has provided new targets for antiviral drug development. APOBEC3G (A3G) and APOBEC3F (A3F) are potent cytidine deaminases that block HIV-1 replication; HIV-1 expresses the Vif protein, which counteracts A3G and A3F by binding to them and inducing their proteasomal degradation. The Vif-A3G and Vif-A3F interactions provide two potential targets for development of small molecules which can interfere with the ability of Vif to degrade A3G or A3F. […] To identify inhibitors that can interfere with Vif mediated degradation of A3G and A3F, we have developed Hela cell lines that stably express A3G or A3F tagged with eYFP at the C-terminal end (A3G-eYFP or A3F-eYFP, respectively) and Vif. In the absence of an inhibitor, Vif induces degradation of A3G-eYFP and A3F-eYFP, and the cells are not fluorescent. In the presence of an inhibitor, it is expected that Vif will be unable to degrade A3G-eYFP and/or A3F-eYFP, resulting in an increase in yellow fluorescence. In this assays Vif A3G was screened against the Molecular Library Small Molecule Repository (MLSMR). NIH Chemical Genomics Center [NCGC] NIH Molecular Libraries Probe Centers Network [MLPCN] MLPCN Grant: MH093245 Assay Submitter (PI): Vinay Pathak, National Cancer Institute
5 uL of 700 cells/well of A3G-YFP cells are dispensed into black, clear bottom plates. The plates are incubated overnight at 37 deg C. 23 nL of compounds are added by pintool. The plates are incubated overnight at 37 deg C and then read on the TTP Acumen (Ex 488/ Em 500-530).
(In general: qHTS replaces the single test concentration by a dilution series.)
As to `Cc1cc(SC(NC=O)C(Cl)(Cl)Cl)ncn1` (stereo unspecified), the activity, negative = active was inactive: 0.309%. Regarding `O=P(Nc1ccccn1)(c1cccc2ccccc12)c1cccc2ccccc12`, the activity, negative = active is inactive: -2.19%. The figure for `O=[As](O)(c1ccc(O)cc1)c1ccccc1O` is inactive: -1.18%; for `C[As](=O)(O)c1cccc(C(=O)O)c1` it is inactive: 2.12%. As to `COc1cc(C(=O)NCC2(N3CCOCC3)CCCCC2)ccc1OCC(C)C`, the activity, negative = active was inactive: -8.75%. The figure for `O=[N+]([O-])c1ccc(-c2cc([N+](=O)[O-])c(O)c([N+](=O)[O-])c2)cc1` is inactive: 0.063%; for `Cc1ccc2nc3c(c(C)c2c1)CC(C(Cl)Cl)S3` (stereo unspecified) it is inactive: 2.5%; for `Cc1ccc(OP(=O)(Nc2ccc([N+](=O)[O-])cn2)Oc2ccc(C)cc2)cc1` it is inactive: 1.59%. On to `ClCCN(CCCl)c1ccc(CC2C=CC=C2)cc1`, for which the activity, negative = active was inactive: 0.932%. The figure for `CC(C)c1ccc(OP(=O)(Nc2ccccn2)Oc2ccccc2F)cc1` (stereo unspecified) is inactive: 4.28%; for `COC(=O)C1(C)COP(=O)(N2CCCCCC2)OC1` (stereo unspecified) it is inactive: -2.08%; for `O=Cc1ccc(NCCCl)cc1` it is inactive: 2.68%. Next, `ClCCSc1nnc(-c2cccnc2)o1`: inactive: -2.38%. As for `O=C(OC1CN2CCC1CC2)c1cccc2[nH]cnc12` (stereo unspecified), the activity, negative = active was inactive: 0.599%.

Turning to `CCN(CC)C(=S)SC(NC=O)C(Cl)(Cl)Cl` (stereo unspecified), the activity, negative = active is inactive: -5.68%. As to `CC(C)NC(=O)NP(=O)(Oc1ccccc1)Oc1ccccc1`, the activity, negative = active was inactive: -3.69%. Next, `O=[N+]([O-])c1cc([N+](=O)[O-])c(-c2ccn[nH]2)s1`: inactive: -15%; `O=C(OC1CN2CCC1CC2)C12CC3CC(CC(C3)C1)C2` (stereo unspecified): inactive: 1.76%; `Cc1cc(=O)[nH]c(N[N+](=O)[O-])n1`: inactive: -4.72%. `Cc1c2c(nc3ccccc13)SC(C(Cl)Cl)C2` (stereo unspecified): the activity, negative = active is inactive: -5.86%. Regarding `COc1ccc2nc(NP(=O)(c3ccccc3)c3ccccc3)sc2c1`, the activity, negative = active is inactive: -5.6%.

Regarding `COc1cc(I)ccc1[As](=O)(O)O`, the activity, negative = active was inactive: -4.15%. Next, `O=P1(N(CCCl)CCCl)Nc2ccccc2N1`: inactive: 2.05%. Take `O=P1(N(CCCl)CCCl)OCCCN1CCCl` (stereo unspecified): the activity, negative = active was inactive: 1.34%. Take `COc1ccc(N/C(=N/P(=O)(N2CCOCC2)N2CCOCC2)N2CCOCC2)cc1`: the activity, negative = active was inactive: 3.88%. `O=[N+]([O-])c1cc(Oc2ccc([N+](=O)[O-])cc2C(F)(F)F)cc([N+](=O)[O-])c1`: the activity, negative = active was inactive: -5.96%.

Regarding `NC(=O)c1cc([N+](=O)[O-])cc([N+](=O)[O-])c1N`, the activity, negative = active was inactive: 3.53%.

Consider `CN(C(=O)Cc1ccc(Cl)c(Cl)c1)[C@H]1CCCC[C@H]1N1CCCC1`, for which the activity, negative = active is inactive: 0.529%.

As to `Cc1ccc(N/C(=N/P(=O)(N2CCOCC2)N2CCOCC2)N2CCOCC2)cc1`, the activity, negative = active is inactive: 2.13%. Next, `COc1ccccc1OP(=O)(Nc1ccc(C)cn1)Oc1ccccc1OC`: inactive: -1.91%; `Cc1ccc(OP(=O)(Nc2nccs2)Oc2ccc(C)cc2)cc1`: inactive: -2.06%; `Clc1ccc(Cl)c(NC2=NCC(CBr)S2)c1` (stereo unspecified): inactive: -2.2%. The figure for `CN1CCCC(OC(=O)C(c2ccccc2)c2ccccc2)C1` (stereo unspecified) is inactive: 4.95%; for `CC(C)CC(=O)NC(Sc1ccc(Cl)cc1)C(Cl)(Cl)Cl` (stereo unspecified) it is inactive: 0.817%. For the compound `Nc1cc(N)c2nonc2c1[N+](=O)[O-]`, the activity, negative = active was inactive: 1.02%. Next, `Oc1ccccc1CNc1ccccn1`: inactive: -0.0563%; `O=C(NC(Sc1ccncn1)C(Cl)(Cl)Cl)c1ccccc1` (stereo unspecified): inactive: -0.375%. In the case of `O=[N+]([O-])C1C(O)C(O)C([N+](=O)[O-])C(O)C1O` (stereo unspecified), the activity, negative = active was inactive: -2.36%. For `O=C(O)c1ccccc1[As](=O)(O)O`, the activity, negative = active was inactive: 0.4%. The figure for `CC(=O)Nc1ccc([As](=O)(O)O)cc1` is inactive: 0.0661%. As for `CCCC1OP(N)(=O)OCC1CC` (stereo unspecified), the activity, negative = active is inactive: -2.65%. On to `CN(C)P(=O)(N(C)C)n1c(Nc2ccccc2)nnc1-c1ccccc1`, for which the activity, negative = active was inactive: -5.03%. Next, `O=P(Nc1nc2ccc(Cl)cc2s1)(c1ccccc1)c1ccccc1`: inactive: -3.72%. Next, `CCOP(=O)(Nc1ccccc1)OCC`: inactive: -0.0192%. For `Cc1cc(SC(NC(=O)c2ccc(F)cc2)C(Cl)(Cl)Cl)ncn1` (stereo unspecified), the activity, negative = active was inactive: -1.8%. For the compound `CN(C(=O)Cc1ccc(Cl)c(Cl)c1)[C@H]1CCCC[C@@H]1N1CCCC1`, the activity, negative = active is inactive: 1.28%. In the case of `Cc1ccc(NP(=O)(Oc2ccccc2F)Oc2ccccc2F)nc1`, the activity, negative = active is inactive: 1.15%.

For `Nc1c(O)cc([N+](=O)[O-])cc1[N+](=O)[O-]`, the activity, negative = active is inactive: -0.455%. For `CCN(N=Nc1nonc1N)c1nonc1N`, the activity, negative = active was inactive: 2.41%. Turning to `Nc1cccc2ccc([As](=O)(O)O)cc12`, the activity, negative = active is inactive: 0.579%. Next, `O=P1(N(CCCl)CCCl)OCCCS1` (stereo unspecified): inactive: -1.41%; `Cc1cc(C=O)ccc1N(CCCl)CCCl`: inactive: -2.67%; `O=C(Nc1cc([As](=O)(O)O)ccc1O)c1ccccc1`: inactive: -6.36%. Regarding `O=P(/N=c1/nc(-c2ccccc2)n(-c2ccccc2)s1)(Nc1ccccc1)Nc1ccccc1`, the activity, negative = active is inactive: -1.7%. In the case of `CC(C)(C)C(=O)NC(Sc1ccncn1)C(Cl)(Cl)Cl` (stereo unspecified), the activity, negative = active is inactive: 0.583%. The figure for `O=[N+]([O-])c1ncn(CCn2ncnc2[N+](=O)[O-])n1` is inactive: 3.27%; for `O=[N+]([O-])c1cccc(NC2=NCC(CBr)S2)c1` (stereo unspecified) it is inactive: 2.82%; for `COC(=O)C1(C)COP(=O)(Nc2ccccc2)OC1` (stereo unspecified) it is inactive: -1.35%.

Turning to `O=C(O)CNc1ccc([As](=O)(O)O)cc1`, the activity, negative = active is inactive: -3.4%. On to `COc1ccc(C2=NCC(CBr)S2)cc1` (stereo unspecified), for which the activity, negative = active is inactive: -14%. Next, `CC(=O)N1C2C3N(C(C)=O)C1C1N(C(C)=O)C(C(N1C(C)=O)N3C(C)=O)N2C(C)=O`: inactive: -0.808%. The figure for `O=[N+]([O-])c1cccc2n[nH]nc12` is inactive: 2.6%.

For the compound `Cc1ccc(NP(=O)(Oc2ccccc2)Oc2ccccc2)nc1`, the activity, negative = active was inactive: -0.651%. Next, `O=[N+]([O-])c1cc([N+](=O)[O-])c(CCNc2ccccc2)c([N+](=O)[O-])c1`: inactive: -10.1%; `CCc1nc2c(n1)c1c(non1O)c1c2no[n+]1[O-]`: inactive: -25.5%.

In the case of `Nc1ccc([As](=O)(O)c2ccc(N)cc2)cc1`, the activity, negative = active was inactive: -2.04%.

Source of the values: PubChem BioAssay AID602310 (National Center for Advancing Translational Sciences (NCATS), 2012).
